Laboratory results reported in patent US10195181B2, “Carboxamide derivatives” (Novartis AG, priority 2014, dated 2019).

Amino acid sequences for entries named in this document (tags omitted).
UniProt Q9HCE7, whole entry: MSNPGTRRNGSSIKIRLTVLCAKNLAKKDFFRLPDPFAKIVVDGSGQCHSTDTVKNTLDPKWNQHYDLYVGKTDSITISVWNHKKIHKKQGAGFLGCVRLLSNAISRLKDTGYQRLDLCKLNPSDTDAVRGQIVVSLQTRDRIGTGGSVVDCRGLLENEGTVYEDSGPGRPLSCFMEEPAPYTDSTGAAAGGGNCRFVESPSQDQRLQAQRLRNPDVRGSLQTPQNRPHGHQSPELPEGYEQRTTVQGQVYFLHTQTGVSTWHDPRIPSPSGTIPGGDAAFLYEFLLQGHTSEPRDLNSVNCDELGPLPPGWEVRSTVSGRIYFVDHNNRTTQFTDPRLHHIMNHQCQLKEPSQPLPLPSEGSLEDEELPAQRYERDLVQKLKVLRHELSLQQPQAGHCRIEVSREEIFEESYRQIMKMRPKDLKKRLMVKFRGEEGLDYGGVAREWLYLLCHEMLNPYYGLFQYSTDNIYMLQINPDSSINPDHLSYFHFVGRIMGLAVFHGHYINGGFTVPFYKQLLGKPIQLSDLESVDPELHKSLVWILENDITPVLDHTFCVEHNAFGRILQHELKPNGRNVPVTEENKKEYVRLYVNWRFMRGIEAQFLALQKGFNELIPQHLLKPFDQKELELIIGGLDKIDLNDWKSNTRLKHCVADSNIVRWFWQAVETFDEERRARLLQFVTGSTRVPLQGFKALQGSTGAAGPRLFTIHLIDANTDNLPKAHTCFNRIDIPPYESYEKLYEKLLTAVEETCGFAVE

Target: Smurf-1 (Homo sapiens (Human), UniProt Q9HCE7)
Test: HECT E3 ligase autoubiquitinylation TR-FRET assay (Smurf-1)
Type: biochemical
Excerpt: To determine the HECT E3 ligase selectivity of the compounds, a panel of biochemical HECT E3 ligase autoubiquitinylation assays was employed (Smurf-1, Smurf-2, WWP1, WWP2, ITCH, Nedd4, Nedd4L and E6AP). The conjugation of ubiquitin to a protein substrate is a multistep process. In an initial ATP-requiring step, a thioester bond is formed between the carboxyl terminus of ubiquitin and an internal cystein residue of the ubiquitin-activating enzyme (E1). Activated ubiquitin is then transferred to a specific cystein residue of an ubiquitin-conjugating enzyme (E2). E2s donate ubiquitin to a HECT E3 ligase (E3) from which it is transferred to the substrate protein. HECT E3 ligases can auto-ubiquitinylate. This event is detected in the TR-FRET (Time-Resolved Fluorescence Resonance Energy Transfer) assay used in this panel. The reaction mix contains E1, E2, tagged-E3, biotin-conjugated ubiquitin, the compound and ATP in a suitable buffer and is incubated for 45 minutes to allow auto-ubiquitinylation of the E3 ligase. […] When these two fluorophores are brought together by a biomolecular interaction (in this case ubiquitinylation of the E3 ligase), a portion of the energy captured by the Cryptate during excitation is released through fluorescence emission at 620 nm, while the remaining energy is transferred to XL665. This energy is then released by XL665 as specific fluorescence at 665 nm. […]

Row | IC50 | Structure (SMILES)
1 | 160 nM | Cc1c(C(=O)Nc2c(C)n(C)n(C3CCCCC3)c2=O)noc1C1OC[C@@H](C(C)(C)C)O1 (single isomer, unassigned) [Example 25a, 5-(4-(tert-butyl)-1,3-dioxolan-2-yl)-N-(2-cyclohexyl-1,5-dimethyl-3-oxo-2,3-dihydro-1H-pyrazol-4-yl)-4-methylisoxazole-3-carboxamide]
2 | 840 nM | Cc1c(C(=O)Nc2c(C)n(C)n(C3CCCCC3)c2=O)noc1[C@H]1OC[C@@H](C(C)(C)C)O1 (single isomer, unassigned) [Example 25c, 5-(4-(tert-Butyl)-1,3-dioxolan-2-yl)-N-(2-cyclohexyl-1,5-dimethyl-3-oxo-2,3-dihydro-1H-pyrazol-4-yl)-4-methylisoxazole-3-carboxamide]
